IC50 data for four substances are collected here from publication PMC10766943, “Synthesis, characterization, Hirshfeld surface analysis, antioxidant and selective β-glucuronidase inhibitory studies of transition metal complexes of hydrazide based Schiff base ligand” (Scientific Reports, 2024).

A word on the IC50: it is the concentration that inhibits the measured activity by half. A lower IC50 goes with greater potency.

The assay addresses T1, β-glucuronidase enzyme (Bos taurus, UniProt A3KMY8).
T1 sequence (A3KMY8 24-652): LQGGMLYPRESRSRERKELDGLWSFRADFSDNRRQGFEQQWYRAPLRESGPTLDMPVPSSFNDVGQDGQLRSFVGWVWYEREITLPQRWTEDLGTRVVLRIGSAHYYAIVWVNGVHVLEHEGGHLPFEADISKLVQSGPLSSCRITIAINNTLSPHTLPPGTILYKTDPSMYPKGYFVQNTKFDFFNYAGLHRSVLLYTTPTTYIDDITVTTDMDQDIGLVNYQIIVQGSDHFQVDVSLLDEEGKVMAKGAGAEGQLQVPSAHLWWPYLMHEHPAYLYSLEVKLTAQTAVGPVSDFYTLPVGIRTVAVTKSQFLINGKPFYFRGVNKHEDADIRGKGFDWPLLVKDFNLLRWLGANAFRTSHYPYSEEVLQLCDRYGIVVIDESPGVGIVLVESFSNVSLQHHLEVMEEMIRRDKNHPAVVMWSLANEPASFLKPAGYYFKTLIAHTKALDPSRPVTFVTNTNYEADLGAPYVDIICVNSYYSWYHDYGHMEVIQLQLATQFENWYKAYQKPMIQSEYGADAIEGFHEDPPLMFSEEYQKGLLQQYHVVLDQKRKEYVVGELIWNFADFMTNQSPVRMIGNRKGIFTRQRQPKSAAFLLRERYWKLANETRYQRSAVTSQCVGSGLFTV
The experiment in a line: β-Glucuronidase inhibitory activity (p-nitrophenyl-β-D-glucuronide, 405 nm). Conditions: β-glucuronidase inhibition, triplicate. The assay is classed as biochemical. The procedure:
β-Glucuronidase inhibitory activity by hydrazide Schiff base ligand (H-AHMB) and its metal (II) complexes was investigated using standard procedure. […] According to the procedure 185 µL of 0.1 M acetate buffer, 5 µL compound to be tested and 10 µL of enzyme solution were mixed and incubated at 37 °C for 30 min. SpectraMax plus 384, Molecular Devices, USA was used to read on a multiplate reader at 405 nm after the addition of 0.4 mM p-nitrophenyl-β-D-glucuronide (50 µL). All experiments were performed in triplicate.
With “Cobalt adduct with N′-[(4-hydroxy-3-methoxyphenyl)methylidene] 2-aminobenzohydrazide [Co-AHMB]”, the IC50 was 21.7 ± 2.54 µM. In the case of “Copper adduct with N′-[(4-hydroxy-3-methoxyphenyl)methylidene] 2-aminobenzohydrazide [Cu-AHMB]” it was 32.3 ± 1 µM. In the case of “Nickel adduct with N′-[(4-hydroxy-3-methoxyphenyl)methylidene] 2-aminobenzohydrazide [Ni-AHMB]” it was 40.6 ± 1.2 µM; in that of “Zinc adduct with N′-[(4-hydroxy-3-methoxyphenyl)methylidene] 2-aminobenzohydrazide [Zn-AHMB]”, 17.3 ± 0.68 µM.
